From US20090311217A1, “3-SUBSTITUTED-1H-INDOLE COMPOUNDS, THEIR USE AS MTOR KINASE AND PI3 KINASE INHIBITORS, AND THEIR SYNTHESES” (priority 2008, published 2009) come the findings set out here.

What is called IC50 is the concentration that inhibits the measured activity by half.

Structures are written as SMILES.

What all share (format): biochemical
One test has as its target PI3K-gamma (Homo sapiens, UniProt P48736). In words: PI3K-gamma fluorescence polarization assay. Conditions: PI3Kγ Avg. IC50. The method, then:
PI3K-Alpha, PI3K-Beta, PI3K-Gamma, and PI3K-delta Fluorescence Polarization Assay Protocols
PI3-Kinase reactions were performed in 5 mM HEPES, pH 7, 2.5 mM MgCl2, and 25 μM ATP, with diC8-PI(4,5)P2 (Echelon, Salt Lake City Utah) as substrate. Nunc 384-well black polypropylene fluorescent plates were used for PI3K assays. Reactions were quenched by the addition of EDTA to a final concentration of 10 mM. Final reaction volumes were 10 μl. For evaluation of PI3K inhibitors, 5 ng of enzyme (PI3K-alpha, beta, gamma, or delta) and 2.5 μM of substrate was used per […] reaction volume, and inhibitor concentrations ranged from 100 μM to 20 μM; the final level of DMSO in reactions never exceeded 2%. Reactions were allowed to proceed for one hour at 25° C. After 1 hour, GST-tagged GRP1 (general receptor for phosphoinositides) PH domain fusion protein was added to a final concentration of 100 nM, and BODIPY-TMRI(1,3,4,5)P4 (Echelon) was also added to a final concentration of 5 nM. Final sample volumes were 25 μl with a final DMSO concentration of 0.8%. Assay Plates were read on Perkin-Elmer Envision plate readers with appropriate filters for Tamra [BODIPY-TMRI(1,3,4,5)P4]. Data obtained were used to calculate enzymatic activity and enzyme inhibition by inhibitor compounds.
(Polarisation of emitted light reports the rotation of a fluorescent probe.)

The target of a further test is PI3K-alpha (Homo sapiens, UniProt P42336). In words: PI3K-alpha fluorescence polarization assay. Conditions: read-out: PI3Kα Avg. IC50.
A further test addresses T1, human TOR (Homo sapiens, UniProt P42345).
T1 construct: FLAG
Put plainly: mTOR enzyme assay (DELFIA, His6-S6K substrate). Conditions: read-out: mTOR Kinase Avg. IC50.

For `CNC(=O)Oc1ccc2c(c1)C(=O)/C(=C/c1cn(CCN3CCN(C)CC3)c3ccc(OC)cc13)O2` [Compound 546, (2Z)-2-({5-methoxy-1-[2-(4-methylpiperazin-1-yl)ethyl]-1H-indol-3-yl}methylene)-3-oxo-2,3-dihydro-1-benzofuran-5-yl methylcarbamate], the half-maximal inhibitory concentration (IC50) against PI3K-gamma was 7360 nM.

Regarding `COc1ccc2c(c1)c(/C=C1\Oc3cc(OC(=O)N(C)c4ccccc4)ccc3C1=O)c(C)n2CCN1CCN(C)CC1` [Compound 558, (2Z)-2-({5-methoxy-2-methyl-1-[2-(4-methylpiperazin-1-yl)ethyl]-1H-indol-3-yl}methylene)-3-oxo-2,3-dihydro-1-benzofuran-6-yl methyl(phenyl)carbamate], the IC50 on PI3K-gamma was 2170 nM.

`Cn1cc(/C=C2\Oc3cc(O)cc(O)c3C2=O)c2ccccc21` [Example 16, (2Z)-4,6-dihydroxy-2-[(1-methyl-1H-indol-3-yl)methylene]-1-benzofuran-3(2H)-one]: the IC50 on PI3K-alpha came to 1110 nM.

For the compound `Cn1cc(C=C2Oc3cc(O)cc(O)c3C2=O)c2c(-c3ccccc3)cccc21` [Example 268, 4,6-dihydroxy-2-[(1-methyl-4-phenyl-1H-indol-3-yl)methylene]-1-benzofuran-3(2H)-one], the concentration for half-maximal inhibition (IC50) at human TOR was found to be 29.5 nM.
